Experimental data from patent publication US11718596B2, “Amyloid targeting agents and methods of using the same” (The Regents of the University of California, priority 2014, dated 2023).

The chains behind the UniProt entries cited, without tags or fusion partners. Residues count along the entry.
UniProt P05067, 672-713 limits assumed: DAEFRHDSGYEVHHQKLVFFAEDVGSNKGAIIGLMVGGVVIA

Target: amyloid deposits in the retina (Homo sapiens, UniProt P05067)
Assay: Ex vivo retina analysis of J20 mice after systemic (tail vein) dosing
Details: J20 mouse, 30 minutes prior to sacrifice, co-localizes with anti-Aβ antibody

COCCOCCOCCNC(=O)/C(C#N)=C/c1ccc2cc(N3CCCCC3)ccc2c1 [Compound 1, (E)-2-Cyano-N-(2-(2-(2-methoxyethoxy)ethoxy)ethyl)-3-(6-(piperidin-1-yl)naphthalen-2-yl)acrylamide]
staining of amyloids in the retina after in vivo systemic administration: specifically stain amyloids in the retina
